# Results reported in patent US12036241B2, “Compositions and methods for immune cell modulation in adoptive immunotherapies” (Fate Therapeutics, Inc., priority 2017, dated 2024).
# Tests used:
# [1] = test system: luciferase expressing Nalm6 tumor cells; test: Two-stage tumor clearance model, primary tumor; assay type: in vivo, NSG mice; conditions: 3×10^6 CD19 CAR-T; FIG. 13B
# Protocol: (§1) To further assess tumor clearance and control by CAR-T cells modulated with a selected compound, a two-stage tumor clearance model was established. […] Secondary tumor burden was measured via bi-weekly caliper measurements and IVIS imaging. IVIS control mice received neither tumor nor CAR-T cells and served as the background luminescence for the IVIS imager.
# [2] = test system: K562 tumor cells engineered to express CD19 and luciferase; test: Two-stage tumor clearance model, secondary tumor re-challenge; assay type: in vivo, NSG mice; conditions: re-challenge 47 days post primary tumor; FIG. 13D
# Protocol: as §1
structure (smiles),measurement,setting,value
Oc1cccc(-c2nc(N3CCOCC3)c3oc4ncccc4c3n2)c1 [PI103],mice that contained and eliminated primary Nalm6 tumor within 1-3 weeks,[1],seven of eight
same,control of secondary tumor,[2],perform better
